The source of these data is patent US20220074941A1, “HSP90 COMBINATION THERAPY” (Sloan-Kettering Institute for Cancer Research, priority 2011, published 2022).

The subject of experiment [1] is Hsp90 complexes in K562 cell extract. The experiment is described as follows: Nano-LC-MS/MS of PU-beads pull-downs. It counts as binding. The settings on record: protein identified in PU-beads pull-down of K562 cell extract, QSTAR-Elite QTof MS.
The test system of experiment [2] is Hsp90 complexes in Mia-PaCa-2 cell extract. Kind of experiment: Nano-LC-MS/MS of PU-beads pull-downs. The settings on record: protein identified in PU-beads pull-down of Mia-PaCa-2 cell extract; QSTAR-Elite QTof MS. In kind it is binding, human.

For the substance BAT3, the “Number of Assigned Spectra, K562 Prep 1” value in experiment [1] (Prep 1) is given as 4. The “Number of Assigned Spectra, K562 Prep 2” value in experiment [1] (Prep 2) was found to be 5. In addition, the “Number of Assigned Spectra, Mia-Paca 2” value in experiment [2] turned out to be 3.
